This data set has as its system hCMEC/D3 cells. The experiment in a line: Uptake with internalisation inhibitors. The conditions noted are these: IMC (indomethacin 200 μM), 8 h, 37 °C; replicate 3.

For “Transferrin: Texas Red-labelled transferrin, TfR substrate, positive control [reference compound]”, the “Mean flouresence (%), uptake vs Control (no inhibitor)” value came to 92.98%.

Source of the values: PMC6789111, “Crossing the blood-brain-barrier with nanoligand drug carriers self-assembled from a phage display peptide” (Nature Communications, 2019).
